Series [1] can be described thus: Solution stability test. Type of series: physicochemical. The method, then:
About 15 mg of the sample was weighed accurately, dissolved with 25 mL of the test solvent (10% aqueous acetone solution, pH=4.0 B-R buffer solution, SGF, SIF) via ultrasound for 20 minutes. The solution was divided into four portions and placed in the clear glass vials, followed by sealing. The samples were exposed in different environments and sampled on day 0 and day 5. The purity of each sample was determined by HPLC, and the number of impurities greater than 0.05% was calculated and compared with the samples on day 0. The exposure environments are:
Room temperature and light-proof test, 25° C.; […]
Illumination experiment (4500±500 lx), 25° C.;
Oxidation experiment (3% v/v hydrogen peroxide), 25° C.

A short description of series [2]: Dynamic vapor sorption (DVS), isothermal absorption analysis. The class given is physicochemical. The method, then:
In the present invention, according to the common knowledge in the art, the amount of water absorption obtained from the dynamic vapor sorption (DVS) pattern is expressed in percentage by weight.
The isothermal absorption analysis (DVS) data was collected from TA Instruments Q5000 TGA. The software for instrument control was Thermal Advantage and software for analysis was Universal Analysis. 1-10 mg of the sample was generally placed in a platinum crucible, and the weight change of the sample during the relative humidity changing from 20% to 80% was recorded by the TA software. Depending on the specifics of the sample, different steps of sample adsorption and desorption were also involved.

Series [3] is described as follows: Comparison of absorption in rats after intragastric administration of free base and salt (plasma pharmacokinetics). The class given is in vivo, SD rats. The settings on record: oral, same dose, free base and 6 salts. The method, then: The blood sample was centrifuged at 8000 RPM for 5 minutes, followed by the isolation of the upper plasma. […] 200 μL of the supernatant was taken and centrifuged again for 10 minutes. 50 μL of the supernatant was injected in a 96-well plate. The plasma drug concentration was determined by LC/MS/MS, and the corresponding pharmacokinetic parameters were calculated.

The nature of series [4]: Solid-state stability test. Type of series: physicochemical. The method, then:
An appropriate amount of the drugs were placed in the surface dish, spread to a thickness of 3-5 mm, and exposed in high temperature, high temperature and high humidity, illumination and oxidation conditions for 10 days respectively, and the solid-state characterization was performed. The purity and the number of impurities 0.05%) of the samples for testing were determined by HPLC, and compared with the samples on day 0. The exposure conditions are:
High temperature (an oven with T=60° C.);
High temperature and high humidity (40° C., a chamber with constant temperature and 75% relative humidity);
Illumination (25° C., a 4500±500 lx light incubator);
Oxidation (25° C., a closed container containing urea hydrogen peroxide).

[5] abbreviates: SGF, 5 d, Illumination (4500±500 lx, 25° C.).

Each structure is given as a SMILES string.

As to `C=C(F)C(=O)Nc1cc2c(Nc3ccc(F)c(Cl)c3)ncnc2cc1OCCCN1CCOCC1.O=S(=O)(O)CCS(=O)(=O)O`, the Purity in series [1] (10% aqueous acetone solution, 0 d) worked out at 99.1%; in series [1] (10% aqueous acetone solution, 5 d, Illumination (4500±500 lx, 25° C.)), 99.1%; in series [1] (SGF, 5 d, High temperature), 98.9%; in series [1] (setting [5]), 98.9%; in series [1] (SGF, 5 d, Oxidation (3% v/v hydrogen peroxide, 25° C.)), 80.8%.
For the molecule `C=C(F)C(=O)Nc1cc2c(Nc3ccc(F)c(Cl)c3)ncnc2cc1OCCCN1CCOCC1.O.O.O.O.O=C(O)C(O)C(O)C(=O)O`, the “loss of hydrate water at low relative humidity (DVS), in words” value in series [2] is “large amounts of water is eliminated rapidly at the relative humidity of 10%”.
As to `C=C(F)C(=O)Nc1cc2c(Nc3ccc(F)c(Cl)c3)ncnc2cc1OCCCN1CCOCC1.O=S(=O)(O)O`, the “absorption, comparison in words” value in series [3] was “better absorbed”.
In the case of `C=C(F)C(=O)Nc1cc2c(Nc3ccc(F)c(Cl)c3)ncnc2cc1OCCCN1CCOCC1` [N-[4-(3-chloro-4-fluoroanilino)]-7-(3-morpholinopropoxy)-6-(2-fluoroacrylamido)-quinazoline, reference compound], the Purity in series [4] (0 d) was 99.1%.
`C=C(F)C(=O)Nc1cc2c(Nc3ccc(F)c(Cl)c3)ncnc2cc1OCCCN1CCOCC1.O=S(=O)(O)c1ccccc1`: the Purity in series [1] (10% aqueous acetone solution, 5 d, High temperature and high humidity) was found to be 96.8%; in series [1] (B-R Buffer solution (pH=4.0), 0 d), 98.5%; in series [1] (B-R Buffer solution (pH=4.0), 5 d, Illumination (4500±500 lx, 25° C.)), 98.5%; in series [1] (SGF, 0 d), 98.9%; in series [1] (SGF, 5 d, High temperature), 98.8%; in series [1] (setting [5]) it was 98.9%. The Purity in series [4] (0 d) is on record as 98.5%; in series [4] (10 d, High temperature (oven, T=60° C.)), 98.5%; in series [4] (10 d, High temperature and high humidity (40° C., 75% relative humidity)), 98.5%; in series [4] (10 d, Illumination (25° C., 4500±500 lx)), 98.5%; in series [4] (10 d, Oxidation (25° C., closed container with urea hydrogen peroxide)) it was 98.5%. Also, the “absorption, comparison in words” value in series [3] is listed as “better absorbed”.
Take `C=C(F)C(=O)Nc1cc2c(Nc3ccc(F)c(Cl)c3)ncnc2cc1OCCCN1CCOCC1.O.O.O=C(O)CC(O)(CC(=O)O)C(=O)O` [crystal form 11 of the dihydrate]: in series [2], the “loss of hydrate water at low relative humidity (DVS), in words” value was “hydrate water is eliminated below the relative humidity of 50%”.
On the same count and under the same terms, the value for `C=C(F)C(=O)Nc1cc2c(Nc3ccc(F)c(Cl)c3)ncnc2cc1OCCCN1CCOCC1.O.O.O=C(O)CC(O)(CC(=O)O)C(=O)O` [crystal form 7 of the dihydrate] was “one water molecule is eliminated below a relative humidity of 10%”.

Values taken from patent US10870627B2, “Salt of quinazoline derivative, preparation method therefor and application thereof” (SHANGHAI PHARMACEUTICALS HOLDING CO., LTD., priority 2016, dated 2020).
